Measurements published in PubChem BioAssay (NCI).
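Grown in 96-well plates, cells were treated for 48 hours with each compound at five concentrations. Insufficient inhibition: endpoint recorded as highest concentration tested. GI50 marks 50% less growth. At the TGI there is no net growth.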

System: MDA-MB-468 breast
Assay: NCI anticancer screen, dose series, 48 h

In the case of `CCOc1ccc(N(CCCl)CCCl)cc1`, the GI50 is reported as 0.845 µM and the TGI is reported as 5.33 µM.
